Earlier results as cited in patent US20190144909A1, “METHODS OF MODULATING BCKDH” (NESTEC S.A., priority 2016, published 2019).

Tested on: branched-chain alpha-keto acid dehydrogenase kinase (BCKDH kinase)

SMILES: O=S(=O)([O-])[O-].[Cu+2] [Copper Sulfate]
- Interaction Actions: decreases expression
